In PubChem BioAssay AID720707 (National Center for Advancing Translational Sciences (NCATS), 2013) one finds activation data, which are given here for 49 compounds.

Amino acid sequences for entries named in this document (tags omitted). A change or cut given only in a name is not applied to a line headed by its entry.
UniProt O95398: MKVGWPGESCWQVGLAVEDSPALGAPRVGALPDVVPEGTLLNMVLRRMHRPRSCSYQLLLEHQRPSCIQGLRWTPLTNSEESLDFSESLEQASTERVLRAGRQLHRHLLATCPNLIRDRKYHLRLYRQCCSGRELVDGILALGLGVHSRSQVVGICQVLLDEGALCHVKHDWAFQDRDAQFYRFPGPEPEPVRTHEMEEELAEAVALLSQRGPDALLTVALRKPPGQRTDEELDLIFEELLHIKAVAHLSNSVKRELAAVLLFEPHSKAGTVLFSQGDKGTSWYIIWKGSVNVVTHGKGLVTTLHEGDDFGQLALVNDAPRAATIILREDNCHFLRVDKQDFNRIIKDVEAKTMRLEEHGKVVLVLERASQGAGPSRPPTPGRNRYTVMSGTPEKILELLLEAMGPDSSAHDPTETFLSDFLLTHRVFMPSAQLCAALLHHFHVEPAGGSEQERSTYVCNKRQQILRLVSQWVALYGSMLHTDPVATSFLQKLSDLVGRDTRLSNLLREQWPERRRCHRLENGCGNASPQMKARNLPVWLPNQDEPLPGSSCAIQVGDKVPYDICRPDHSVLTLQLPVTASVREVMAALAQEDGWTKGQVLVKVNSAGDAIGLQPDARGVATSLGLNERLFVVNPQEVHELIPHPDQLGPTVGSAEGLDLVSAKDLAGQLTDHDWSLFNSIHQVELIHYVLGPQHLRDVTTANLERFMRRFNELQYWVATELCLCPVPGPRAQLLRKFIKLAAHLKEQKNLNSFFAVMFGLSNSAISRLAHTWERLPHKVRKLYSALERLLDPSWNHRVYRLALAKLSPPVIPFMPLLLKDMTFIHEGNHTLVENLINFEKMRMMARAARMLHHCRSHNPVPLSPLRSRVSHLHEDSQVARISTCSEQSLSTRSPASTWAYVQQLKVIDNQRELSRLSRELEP

SMILES strings stand for the structures. The list shows a part of the results, in another mix than the full data. Active and inactive are the calls of the source. Calls come from the whole dose curve; as a rule, active = well fitted activation curve with a large enough effect; inconclusive = small, poorly fitted or top-dose-only effect; inactive = no such curve, though single readings can be large or run the other way.

This experiment has as its target Rap guanine nucleotide exchange factor 3 (Homo sapiens) (UniProt O95398). Nature of the experiment: qHTS for Agonist of cAMP-regulated guanine nucleotide exchange factor 3 (EPAC1): primary screen. Note: nearly all actives have a fitted effect of over 60% in size. The conditions noted are these: biochemical assay, 100% = response to 6.5 mM cAMP; at 154 µM (top of the series). A digest of the protocol:
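Multi-concentration qHTS readout: loss of Rap1B-bound BODIPY-GDP fluorescence driven by 100 nM EPAC1 with excess GDP (50 uM), monitored kinetically at room temperature; agonist response expressed relative to 6.5 mM cAMP.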
(In general: In qHTS, concentration-response curves come from the screen itself.)
`CCC1=CC2Cc3nc4ccc(Cl)cc4c(N)c3C(C1)C2` (centres undefined): the activation was inactive: -5.33%.

As to `O=P1(Nc2ccccn2)COc2ccccc2OC1`, the activation was inactive: 12.6%.

Turning to `CCOP(=O)(NC(=NC(C)c1ccccc1)NC(C)c1ccccc1)OCC` (centres undefined), the activation is inactive: -0.247%.

Turning to `CC1(CBr)Cn2c(nc3ccccc3c2=O)S1` (centres undefined), the activation is inactive: -0.483%.

For the compound `CN(C(=O)Cc1ccc(Cl)c(Cl)c1)[C@@H]1CCCC[C@H]1N1CCCC1`, the activation was inactive: -16%.

Turning to `CC(C)/C=N\N=C(\N)N[N+](=O)[O-]`, the activation is inactive: -18.7%.

Regarding `COc1ccccc1CNC(=O)COC(=O)C(O)(c1ccccc1)c1ccccc1`, the activation is inactive: 3.74%.

As for `O=C(COc1ccccc1)OC1CN2CCC1CC2` (centres undefined), the activation was inactive: -3.63%.

On to `O=C(Nc1ccncc1[N+](=O)[O-])c1ccc([N+](=O)[O-])cc1[N+](=O)[O-]`, for which the activation is inactive: 13%.

As to `O=C(O)C(=O)c1ccc(N(CCCl)CCCl)cc1`, the activation is inactive: -2.38%.

For the compound `COP1(=S)c2c(C)nn(CCC#N)c2N=C(c2ccc(F)cc2)N1C` (centres undefined), the activation was inactive: 10.8%.

For `COC(=O)C1(C)COP(=O)(N2CCCC2)OC1` (centres undefined), the activation is inactive: 1.13%.

As for `CCC(C)N(CC(C)C)C(=S)SC(NC(C)=O)C(Cl)(Cl)Cl` (centres undefined), the activation was inactive: -9.15%.

As to `CCOC(=O)c1ccc(NC(=O)C(C)(CCl)SC)cc1` (centres undefined), the activation is inactive: 5.59%.

`O=C(OC1CN2CCC1CC2)c1cccc([N+](=O)[O-])c1` (centres undefined): the activation was inactive: 9.74%.

Regarding `CSc1ccc(Nc2c([N+](=O)[O-])cc([N+](=O)[O-])cc2[N+](=O)[O-])cc1`, the activation was inactive: 18.6%.

As to `CCCCOc1ccc(C(=O)NCC2(N3CCCCC3)CCCCC2)cc1OC`, the activation was inactive: -4.06%.

`Cc1cc(SC(NC(=O)c2ccccc2)C(Cl)(Cl)Cl)nc(C(C)C)n1` (centres undefined): the activation was inactive: -3.05%.

As for `COP(=O)(OC)N1CC1c1ccccc1` (centres undefined), the activation is inactive: 2.28%.

Regarding `CC1CCNP(=O)(N(CCCl)CCCl)O1` (centres undefined), the activation is inactive: 9.84%.

Turning to `O=C(O)C(O)c1ccc(N(CCCl)CCCl)cc1` (centres undefined), the activation is inactive: 7.3%.

With `CCOC(=O)Nc1ccc([As](=O)(O)O)c(O)c1`, the activation is inactive: -4.84%.

For `O=[N+]([O-])c1ccc(Nc2ccc(Oc3ccc([N+](=O)[O-])cc3[N+](=O)[O-])cc2)c([N+](=O)[O-])c1`, the activation was inactive: 5.29%.

`Cc1cc(SC(NC=O)C(Cl)(Cl)Cl)ncn1` (centres undefined): the activation was inactive: 6.39%.

Turning to `O=P(Nc1ccccn1)(c1cccc2ccccc12)c1cccc2ccccc12`, the activation was inactive: 12.7%.

On to `CCOC(=O)Nc1cccc([As](=O)(O)O)c1`, for which the activation was inactive: 13.3%.

Regarding `Cc1ccc2nc3c(c(C)c2c1)CC(C(Cl)Cl)S3` (centres undefined), the activation was inactive: -2.28%.

Turning to `Cc1ccc(OP(=O)(Nc2ccc([N+](=O)[O-])cn2)Oc2ccc(C)cc2)cc1`, the activation was inactive: 2.26%.

As for `[N-]=[N+]=NC1CCCCC1NC(=O)c1cc([N+](=O)[O-])cc([N+](=O)[O-])c1` (centres undefined), the activation was inactive: 2.78%.

As to `C[As](=O)(O)c1cccc(C(=O)O)c1`, the activation is inactive: 9.63%.

As to `O=[As](O)(c1ccc(O)cc1)c1ccccc1O`, the activation was inactive: -10.3%.

Take `COc1cc(C(=O)NCC2(N3CCOCC3)CCCCC2)ccc1OCC(C)C`: the activation is inactive: -4.16%.

In the case of `O=[N+]([O-])c1ccc(-c2cc([N+](=O)[O-])c(O)c([N+](=O)[O-])c2)cc1`, the activation is inactive: -1.39%.

Take `CCN(CC)C(=S)SC(NC=O)C(Cl)(Cl)Cl` (centres undefined): the activation is inactive: -5.95%.

Turning to `O=C(OC1CN2CCC1CC2)c1cccc2[nH]cnc12` (centres undefined), the activation was inactive: 5.75%.

For `CC(C)NC(=O)NP(=O)(Oc1ccccc1)Oc1ccccc1`, the activation is inactive: 3.3%.

Turning to `O=[N+]([O-])c1cc([N+](=O)[O-])c(-c2ccn[nH]2)s1`, the activation was inactive: -1.12%.

Regarding `CC(C)c1ccc(OP(=O)(Nc2ccccn2)Oc2ccccc2F)cc1` (centres undefined), the activation was inactive: 8.57%.

Consider `COC(=O)C1(C)COP(=O)(N2CCCCCC2)OC1` (centres undefined), for which the activation is inactive: -5.48%.

With `ClCCSc1nnc(-c2cccnc2)o1`, the activation was inactive: -0.828%.

Turning to `COc1ccc2nc(NP(=O)(c3ccccc3)c3ccccc3)sc2c1`, the activation is inactive: 6.81%.

Consider `COc1cc(I)ccc1[As](=O)(O)O`, for which the activation was inactive: 1.32%.

As to `O=P1(N(CCCl)CCCl)OCCCN1CCCl` (centres undefined), the activation was inactive: 7.31%.

As for `O=P1(N(CCCl)CCCl)Nc2ccccc2N1`, the activation is inactive: 7.51%.

On to `O=C(OC1CN2CCC1CC2)C12CC3CC(CC(C3)C1)C2` (centres undefined), for which the activation was inactive: 3.17%.

Take `Cc1cc(=O)[nH]c(N[N+](=O)[O-])n1`: the activation was inactive: -2.34%.

For `Cc1c2c(nc3ccccc13)SC(C(Cl)Cl)C2` (centres undefined), the activation is inactive: 8.46%.

`COc1ccc(N/C(=N/P(=O)(N2CCOCC2)N2CCOCC2)N2CCOCC2)cc1`: the activation was inactive: -6.88%.

For the compound `O=[N+]([O-])c1cc(Oc2ccc([N+](=O)[O-])cc2C(F)(F)F)cc([N+](=O)[O-])c1`, the activation is inactive: 6.98%.
